Settings: compared to form B of Nilotinib HCl described in WO'870

For Nilotinib hydrochloride L-tartaric acid, the bulk density was “high bulk density”.

Reference: patent US10640487B2, “Solid state forms of Nilotinib salts” (Teva Pharmaceuticals USA, Inc., priority 2016, dated 2020)
